Test results: publication PMC12886327

The chains behind the UniProt entries cited, without tags or fusion partners. Where a name states a change or a piece, a line headed by the entry shows the natural chain unless it says otherwise.
UniProt P41143: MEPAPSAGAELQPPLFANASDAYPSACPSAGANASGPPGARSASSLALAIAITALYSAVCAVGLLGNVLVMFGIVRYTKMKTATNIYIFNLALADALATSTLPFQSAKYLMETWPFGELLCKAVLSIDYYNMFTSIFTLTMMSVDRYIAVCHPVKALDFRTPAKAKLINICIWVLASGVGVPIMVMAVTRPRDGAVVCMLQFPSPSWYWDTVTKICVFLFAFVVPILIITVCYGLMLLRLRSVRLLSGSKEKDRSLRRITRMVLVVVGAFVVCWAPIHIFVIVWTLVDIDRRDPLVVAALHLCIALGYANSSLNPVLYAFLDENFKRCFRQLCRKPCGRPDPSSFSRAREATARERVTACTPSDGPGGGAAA

Target: human DOR membrane preparation (δ-opioid receptor) (Homo sapiens, UniProt P41143)
Assay: HTRF GTP Gi binding assay, DOR activation
Conditions: 95% confidence interval in parentheses

With SNC-80 as the substance, how does the “DOR Emax” value (efficacy relative to SNC-80) read?
Its value is 100 (89–108) %.

And the EC50 (read-out: DOR EC50, potency)?
The EC50 was 4.5 nM.
